Molecules are shown by their SMILES.

Chains of the proteins cited; added tags and fusions are not shown.
UniProt P62593, whole entry, looked up: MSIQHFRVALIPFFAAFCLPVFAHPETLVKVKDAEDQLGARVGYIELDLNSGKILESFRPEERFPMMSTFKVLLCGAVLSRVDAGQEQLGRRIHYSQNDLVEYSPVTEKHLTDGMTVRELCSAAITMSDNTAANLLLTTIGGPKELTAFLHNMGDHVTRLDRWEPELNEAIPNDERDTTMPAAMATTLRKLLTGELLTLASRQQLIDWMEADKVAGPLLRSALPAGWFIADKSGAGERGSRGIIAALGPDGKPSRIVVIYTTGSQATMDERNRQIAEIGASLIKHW

By Km is commonly meant the substrate concentration at which the rate is half of its maximum.

Assay [1] concerns the target Beta-lactamase TEM (Escherichia coli) (UniProt P62593). Kind of assay: Stability towards beta-lactamase was determined in penicillinase.
Assay [2] shares this target. Nature of the assay: Stability towards penicillinase was determined.

On to `CC1(C)S[C@@H]2[C@H](NC(=O)[C@H](N)c3ccc(O)cc3)C(=O)N2[C@H]1C(=O)O` [AMOXICILLIN], for which the Vmax in assay [1] was found to be 2.94. In addition, in assay [2], the Michaelis constant (Km) was 22 µg/mL.

These data come from ChEMBL document CHEMBL1146745, “Studies on anti-Helicobacter pylori agents. Part 3: A novel, efficacious cephem derivative, FR193879” (Bioorg Med Chem Lett, 2004).
